# AlphaSeq binding of Ab-14 light chain variants to a spike HR2 peptide

Binding partner: SARS-CoV-2 spike HR2 peptide, sequence PDVDLGDISGINAS.

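The starting antibody came from a phage panning campaign against this peptide. The library (AAYL50) carries one to three amino acid substitutions per variant, with no insertions or deletions. The scFvs were displayed on barcoded MATa yeast, the peptide on MATalpha yeast. Binding brings cells together so that they mate, and sequencing counts the barcode pairs among the diploids. Each replicate has its own calibration line, from reference interactions of the BCL2 family. Each pool was mated in three replicate cultures.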

Each scFv is VH, a 15-residue (Gly4Ser)3 linker, VL, as in the parent Ab-14, and differs from it in the CDRs of the light chain only.
VH: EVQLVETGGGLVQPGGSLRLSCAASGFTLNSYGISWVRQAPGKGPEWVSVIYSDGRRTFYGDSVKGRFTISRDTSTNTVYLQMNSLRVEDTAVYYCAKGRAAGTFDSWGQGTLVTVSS
VL: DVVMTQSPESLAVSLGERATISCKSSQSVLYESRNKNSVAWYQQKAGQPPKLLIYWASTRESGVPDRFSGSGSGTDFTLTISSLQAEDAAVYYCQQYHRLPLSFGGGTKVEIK

The parent's light chain CDRs are KSSQSVLYESRNKNSVA, WASTRES, QQYHRLPLS; each variant's own CDRs replace them letter for letter.
Every variant below is changed at S26 of the VL (sequential numbering).
Scale: log10 of Kd in nM, estimated from mating counts; low values are strong binders.
An entry "ND" has no value in the source: the pair was not observed among the diploids in that replicate. This suggests poor binding but is not conclusive.
As a blank, each scFv also met three strains without target: over library AAYL50, 18% of these pairings were detected, typically at 4.19 and seldom below 2.99. The control count says in how many pairings with the empty strains this scFv gave a signal.

- KSVQSVLREKRNKNSVA | WASTRES | QQYHRLPLS -> ND, 2.83, ND (controls 0 of 9)
- KSLQSVLYESRNKNAVC | WASTRES | QQYHRLPLS -> ND, ND, ND (controls 0 of 9)
- KSYQSVLYESRNKNSVA | WASTRES | QQYIRLPLS -> 2.27, 2.02, 1.90 (controls 3 of 9)
- KSFQSVLYESRPKNSVA | WASTRES | QQYHFLPLS -> ND, ND, ND (controls 1 of 9)
- KSPQSVLYESRNKNSVA | WASTRES | QQYHRLPLS -> 1.47, 1.67, 1.85 (controls 3 of 9)
- KSMQSVLYEDRNKNSVA | WASTRES | QQYHRLPLS -> ND, 3.47, ND (controls 0 of 9)
- KSWQSVLYECRKKNSVA | WASTRES | QQYHRLPLS -> ND, ND, ND (controls 0 of 9)
- KSTQSVLYESRNKNSVA | WALTRSS | QQYHRLPLS -> 6.23, ND, ND (controls 5 of 9)
- KSECSVLYESRNKMSVA | WASTRES | QQYHRLPLS -> 2.58, 2.36, 2.19 (controls 2 of 9)
- KSHQSVLYESRNKNSVA | WASHRES | QQYHRLPLH -> ND, ND, 4.07 (controls 0 of 9)
- KSMQEVLYESRNKNSVA | WASTTES | QQYHRLPLS -> ND, ND, ND (controls 0 of 9)
- KSDQSVLYESRNKNSVA | WASTRES | DQYHYLPLS -> 0.12, 0.62, 0.77 (controls 3 of 9)
- KSHQSKLYESRGKNSVA | WASTRES | QQYHRLPLS -> 1.94, 2.27, 3.13 (controls 1 of 9)
- KSNLSVLYESRNKNSVA | WASVRES | QQYHRLPLS -> ND, ND, ND (controls 0 of 9)
- KSIQSVLYESRNKNSVA | WASTRES | QQYHRLPLS -> 0.94, 1.36, 1.29 (controls 1 of 9)
- KSLQSVLYESRNKNSVA | WASTRES | WQYHRLSLS -> ND, ND, ND (controls 1 of 9)
- KSMQSVLDESRNKNSVA | WATTRES | QQYHRLPLS -> 0.24, 0.61, 0.29 (controls 3 of 9)
- KSAQSVLYESRNKPSVA | WASTREN | QQYHRLPLS -> 3.20, 2.88, 2.85 (controls 3 of 9)
- KSFQSVLYESRNKNSVA | WASTRES | QQYHRLPYS -> ND, 3.31, ND (controls 3 of 9)
- KSLQSVLYESRNKNSVA | WAWTRHS | QQYHRLPLS -> ND, 2.29, ND (controls 1 of 9)
- KFKQSVLYESRNINSVA | WASTRES | QQYHRLPLS -> 0.35, 0.48, 0.25 (controls 2 of 9)
- KSCQSVLYESRNKNSVA | WASTRES | QQPHRLPLS -> 5.35, ND, 5.18 (controls 3 of 9)
- KSVQSVLYESRNKNSVA | WASTRES | QVYHRLPLS -> ND, ND, ND (controls 1 of 9)
- KSKDSVLYESRNKNSVA | WNSTRES | QQYHRLPLS -> ND, ND, ND (controls 2 of 9)
- KSGQGVLYESRNKNSVA | GASTRES | QQYHRLPLS -> -0.88, -0.48, -0.80 (controls 0 of 9)
- KSIQSVLYESRNHNSTA | WASTRES | QQYHRLPLS -> ND, ND, ND (controls 5 of 9)
- KAQQSVLYESRNKNSWA | WASTRES | QQYHRLPLS -> 4.62, ND, ND (controls 2 of 9)
- KSLYSVLYESRNKNSVA | WASTRES | QQYHRLPLS -> 1.26, 1.38, 1.31 (controls 3 of 9)
- KSCQIVLYESRNKNSVA | WASTRES | QQYHRLPLS -> ND, ND, ND (controls 1 of 9)
- KSLQSVLYESRNKNSVY | WASTREA | QQYHRLPLS -> ND, ND, ND (controls 1 of 9)
- KSHQSVLYESRNKNHVA | WASTREM | QQYHRLPLS -> ND, 3.11, 3.99 (controls 1 of 9)
- KSFQSVLYESRNKNSVW | WASTRES | QQYHRLPLS -> ND, ND, ND (controls 0 of 9)
- KSPQSVHYESRNKNSVA | WASWRES | QQYHRLPLS -> 2.12, 2.26, 2.42 (controls 4 of 9)
- KSGQSVLYSSRHKNSVA | WASTRES | QQYHRLPLS -> 2.24, 2.19, 2.15 (controls 3 of 9)
- KSTQSVLYESRNKKSVA | WASTRES | QQYHRLKLS -> ND, 3.55, ND (controls 0 of 9)
- KSKQSVLYESRNKNRVA | QASTRES | QQYHRLPLS -> 0.89, 1.02, 1.02 (controls 2 of 9)
- SSPQSVLYESRNKNSVA | WAHTRES | QQYHRLPLS -> 2.39, 2.43, 1.85 (controls 0 of 9)

Repeated from above, the 5 best binders with a signal in all replicates:

| CDR-L1 | CDR-L2 | CDR-L3 | replicates, log10 nM | empty controls |
|---|---|---|---|---|
| KSGQGVLYESRNKNSVA | GASTRES | QQYHRLPLS | -0.88, -0.48, -0.80 | 0/9 |
| KFKQSVLYESRNINSVA | WASTRES | QQYHRLPLS | 0.35, 0.48, 0.25 | 2/9 |
| KSMQSVLDESRNKNSVA | WATTRES | QQYHRLPLS | 0.24, 0.61, 0.29 | 3/9 |
| KSDQSVLYESRNKNSVA | WASTRES | DQYHYLPLS | 0.12, 0.62, 0.77 | 3/9 |
| KSKQSVLYESRNKNRVA | QASTRES | QQYHRLPLS | 0.89, 1.02, 1.02 | 2/9 |

Source: Engelhart et al. 2022 (doi:10.1038/s41597-022-01779-4), MIT Lincoln Laboratory and A-Alpha Bio; data file from the FLAb repository.